Results: PubChem BioAssay (NCI)
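Five compound concentrations were applied to cells in 96-well plates for 48 hours; endpoints were derived by simple linear interpolation of the resulting dose-response curve. GI50 = concentration required for 50% inhibition of growth. The concentration for full growth arrest is given as TGI.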

Columns and labels:
Experiment in all cases: NCI anticancer screen, dose series, 48 h
NCI-H460 lung = system: NCI-H460 lung
TK-10 renal = system: TK-10 renal
COLO 205 colon = system: COLO 205 colon
MALME-3M melanoma = system: MALME-3M melanoma
BT-549 breast = system: BT-549 breast
IGROV1 ovarian = system: IGROV1 ovarian
CCRF-CEM leukemia = system: CCRF-CEM leukemia
NCI-H23 lung = system: NCI-H23 lung
SNB-75 CNS = system: SNB-75 CNS
OVCAR-8 ovarian = system: OVCAR-8 ovarian
786-0 renal = system: 786-0 renal
A549 NSCLC = system: A549 NSCLC
SF-295 CNS = system: SF-295 CNS
EKVX NSCLC = system: EKVX NSCLC
MOLT-4 leukemia = system: MOLT-4 leukemia
SN12C renal = system: SN12C renal
CAKI-1 renal = system: CAKI-1 renal
ACHN renal = system: ACHN renal
OVCAR-3 ovarian = system: OVCAR-3 ovarian
HOP-62 NSCLC = system: HOP-62 NSCLC
MDA-MB-231 breast = system: MDA-MB-231 breast
U251 CNS = system: U251 CNS
UO-31 renal = system: UO-31 renal
SK-MEL-2 melanoma = system: SK-MEL-2 melanoma
HCT-15 colon = system: HCT-15 colon
HCT-116 colon = system: HCT-116 colon
M14 melanoma = system: M14 melanoma
HS 578T breast = system: HS 578T breast
T-47D breast = system: T-47D breast
OVCAR-4 ovarian = system: OVCAR-4 ovarian
K-562 leukemia = system: K-562 leukemia
NCI-H226 lung = system: NCI-H226 lung
RXF 393 renal = system: RXF 393 renal
NCI-H522 lung = system: NCI-H522 lung
SF-268 CNS = system: SF-268 CNS
RPMI-8226 leukemia = system: RPMI-8226 leukemia
DU-145 prostate = system: DU-145 prostate
SR leukemia = system: SR leukemia
UACC-257 melanoma = system: UACC-257 melanoma
HOP-92 NSCLC = system: HOP-92 NSCLC
MDA-MB-435 = system: MDA-MB-435
UACC-62 melanoma = system: UACC-62 melanoma
SK-OV-3 ovarian = system: SK-OV-3 ovarian
HT29 colon = system: HT29 colon
SW-620 colon = system: SW-620 colon
OVCAR-5 ovarian = system: OVCAR-5 ovarian
HCC-2998 colon = system: HCC-2998 colon
MDA-N = system: MDA-N
SNB-19 CNS = system: SNB-19 CNS
SF-539 CNS = system: SF-539 CNS
NCI/ADR-RES ovarian = system: NCI/ADR-RES ovarian
NCI-H322M lung = system: NCI-H322M lung
SK-MEL-5 melanoma = system: SK-MEL-5 melanoma
SK-MEL-28 melanoma = system: SK-MEL-28 melanoma
A498 renal = system: A498 renal
LOX IMVI melanoma = system: LOX IMVI melanoma
HL-60(TB) leukemia = system: HL-60(TB) leukemia
KM12 colon = system: KM12 colon
PC-3 prostate = system: PC-3 prostate
MCF7 breast = system: MCF7 breast

Cc1cccc(C[N+](C)(CCCl)CCCl)c1[N+](=O)[O-]
GI50 (NCI-H460 lung): 6.03 µM
TGI (NCI-H460 lung): > 100 µM
GI50 (TK-10 renal): > 100 µM
TGI (TK-10 renal): > 100 µM
GI50 (COLO 205 colon): > 100 µM
TGI (COLO 205 colon): > 100 µM
GI50 (MALME-3M melanoma): > 100 µM
TGI (MALME-3M melanoma): > 100 µM
GI50 (BT-549 breast): > 100 µM
TGI (BT-549 breast): > 100 µM
GI50 (IGROV1 ovarian): > 100 µM
TGI (IGROV1 ovarian): > 100 µM
GI50 (CCRF-CEM leukemia): 32.8 µM
TGI (CCRF-CEM leukemia): > 100 µM
GI50 (NCI-H23 lung): 94.2 µM
TGI (NCI-H23 lung): > 100 µM
GI50 (SNB-75 CNS): 39.4 µM
TGI (SNB-75 CNS): > 100 µM
GI50 (OVCAR-8 ovarian): > 100 µM
TGI (OVCAR-8 ovarian): > 100 µM
GI50 (786-0 renal): 82.2 µM
TGI (786-0 renal): > 100 µM
GI50 (A549 NSCLC): 91.2 µM
TGI (A549 NSCLC): > 100 µM
GI50 (SF-295 CNS): > 100 µM
TGI (SF-295 CNS): > 100 µM
GI50 (EKVX NSCLC): > 100 µM
TGI (EKVX NSCLC): > 100 µM
GI50 (MOLT-4 leukemia): 30.5 µM
TGI (MOLT-4 leukemia): > 100 µM
GI50 (SN12C renal): 68.9 µM
TGI (SN12C renal): > 100 µM
GI50 (CAKI-1 renal): 22.5 µM
TGI (CAKI-1 renal): > 100 µM
GI50 (ACHN renal): 24.3 µM
TGI (ACHN renal): > 100 µM
GI50 (OVCAR-3 ovarian): > 100 µM
TGI (OVCAR-3 ovarian): > 100 µM
GI50 (HOP-62 NSCLC): > 100 µM
TGI (HOP-62 NSCLC): > 100 µM
GI50 (MDA-MB-231 breast): > 100 µM
TGI (MDA-MB-231 breast): > 100 µM
GI50 (U251 CNS): > 100 µM
TGI (U251 CNS): > 100 µM
GI50 (UO-31 renal): > 100 µM
TGI (UO-31 renal): > 100 µM
GI50 (SK-MEL-2 melanoma): > 100 µM
TGI (SK-MEL-2 melanoma): > 100 µM
GI50 (HCT-15 colon): > 100 µM
TGI (HCT-15 colon): > 100 µM
GI50 (HCT-116 colon): > 100 µM
TGI (HCT-116 colon): > 100 µM
GI50 (M14 melanoma): > 100 µM
TGI (M14 melanoma): > 100 µM
GI50 (HS 578T breast): > 100 µM
TGI (HS 578T breast): > 100 µM
GI50 (T-47D breast): 35.3 µM
TGI (T-47D breast): > 100 µM
GI50 (OVCAR-4 ovarian): > 100 µM
TGI (OVCAR-4 ovarian): > 100 µM
GI50 (K-562 leukemia): > 100 µM
TGI (K-562 leukemia): > 100 µM
GI50 (NCI-H226 lung): > 100 µM
TGI (NCI-H226 lung): > 100 µM
GI50 (RXF 393 renal): 51.5 µM
TGI (RXF 393 renal): > 100 µM
GI50 (NCI-H522 lung): 67.1 µM
TGI (NCI-H522 lung): > 100 µM
GI50 (SF-268 CNS): > 100 µM
TGI (SF-268 CNS): > 100 µM
GI50 (RPMI-8226 leukemia): > 100 µM
TGI (RPMI-8226 leukemia): > 100 µM
GI50 (DU-145 prostate): 75.5 µM
TGI (DU-145 prostate): > 100 µM
GI50 (SR leukemia): 3.33 µM
TGI (SR leukemia): > 100 µM
GI50 (UACC-257 melanoma): > 100 µM
TGI (UACC-257 melanoma): > 100 µM
GI50 (HOP-92 NSCLC): 46 µM
TGI (HOP-92 NSCLC): > 100 µM
GI50 (MDA-MB-435): > 100 µM
TGI (MDA-MB-435): > 100 µM
GI50 (UACC-62 melanoma): > 100 µM
TGI (UACC-62 melanoma): > 100 µM
GI50 (SK-OV-3 ovarian): > 100 µM
TGI (SK-OV-3 ovarian): > 100 µM
GI50 (HT29 colon): > 100 µM
TGI (HT29 colon): > 100 µM
GI50 (SW-620 colon): > 100 µM
TGI (SW-620 colon): > 100 µM
GI50 (OVCAR-5 ovarian): > 100 µM
TGI (OVCAR-5 ovarian): > 100 µM
GI50 (HCC-2998 colon): > 100 µM
TGI (HCC-2998 colon): > 100 µM
GI50 (MDA-N): > 100 µM
TGI (MDA-N): > 100 µM
GI50 (SNB-19 CNS): > 100 µM
TGI (SNB-19 CNS): > 100 µM
GI50 (SF-539 CNS): > 100 µM
TGI (SF-539 CNS): > 100 µM
GI50 (NCI/ADR-RES ovarian): > 100 µM
TGI (NCI/ADR-RES ovarian): > 100 µM
GI50 (NCI-H322M lung): > 100 µM
TGI (NCI-H322M lung): > 100 µM
GI50 (SK-MEL-5 melanoma): > 100 µM
TGI (SK-MEL-5 melanoma): > 100 µM
GI50 (SK-MEL-28 melanoma): > 100 µM
TGI (SK-MEL-28 melanoma): > 100 µM
GI50 (A498 renal): > 100 µM
TGI (A498 renal): > 100 µM
GI50 (LOX IMVI melanoma): 67.3 µM
TGI (LOX IMVI melanoma): > 100 µM
GI50 (HL-60(TB) leukemia): 31.4 µM
TGI (HL-60(TB) leukemia): > 100 µM
GI50 (KM12 colon): > 100 µM
TGI (KM12 colon): > 100 µM
GI50 (PC-3 prostate): > 100 µM
TGI (PC-3 prostate): > 100 µM
GI50 (MCF7 breast): 85.7 µM
TGI (MCF7 breast): > 100 µM
